Measured values from patent US9034886B2, “4-aminoquinazoline derivatives and uses thereof” (Shanghai Institute of Pharmaceutical Industry, priority 2011, dated 2015).

By UniProt entry, the sequences of proteins in these tests, tags left out.
UniProt Q13547, whole entry: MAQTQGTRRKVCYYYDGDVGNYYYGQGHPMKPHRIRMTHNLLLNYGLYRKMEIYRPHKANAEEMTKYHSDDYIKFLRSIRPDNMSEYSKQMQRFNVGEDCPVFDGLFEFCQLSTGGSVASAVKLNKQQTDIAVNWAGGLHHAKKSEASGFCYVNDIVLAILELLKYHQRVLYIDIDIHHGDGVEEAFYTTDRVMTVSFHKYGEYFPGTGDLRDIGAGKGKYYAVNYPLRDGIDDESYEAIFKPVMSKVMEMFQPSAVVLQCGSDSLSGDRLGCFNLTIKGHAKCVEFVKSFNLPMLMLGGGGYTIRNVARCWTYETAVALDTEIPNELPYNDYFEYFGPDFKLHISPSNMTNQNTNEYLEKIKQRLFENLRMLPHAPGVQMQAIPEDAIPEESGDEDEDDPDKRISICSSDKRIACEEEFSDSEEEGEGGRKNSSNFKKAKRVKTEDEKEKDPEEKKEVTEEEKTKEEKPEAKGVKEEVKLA

How the values were obtained:
HDAC1 = HDAC1 (Homo sapiens (Human), UniProt Q13547); assay: In vitro inhibition of subtype HDAC1 (HDAC1 Inhibitor Drug Screening Kit, Biovision); format: biochemical
Experimental: The in vitro inhibitory activities of the compounds towards the subtype HDAC1 were tested according to the instructions in the HDAC1 Inhibitor Drug Screening Kit (Biovision).
(1) The compounds to be tested were each individually prepared as 10 μM and 1 μM solutions and their inhibitory activities at these concentrations were tested.
Each dilution sample was placed in two wells and the enzyme inhibition IC50 of the compound was tested.

[1] = system: K562 human chronic myelogenous leukemia cells; assay: In vitro anti-proliferative effect, CCK-8 method, K562; format: cell-based
Experimental: The inhibitory activities of the compounds towards Hut78 T lymphocytic leukemia cells, Jurkat E6-1 human T-cell lymphoma, PANC-1 human pancreatic cancer cells, A549 human lung cancer cells, K562 human chronic myelogenous leukemia cells, Hep3B2.1-7 human liver cancer cells, MDA-MB-435s human breast cancer cells. Colo320 human colorectal cancer cell lines, and PC-3 human prostate cancer at two concentrations of 100 μM and 10 μM were determined. The inhibition percentages were obtained through CCK-8 method.

For `Nc1ccccc1NC(=O)c1ccc(CNC(=O)OCc2cccnc2)cc1` [MS-275, reference compound], the “% Inhibition towards HDAC1” value (HDAC1; 1 μM) was 46.58%, the “% Inhibition towards HDAC1” value (HDAC1; 10 μM) was 76.20% and the IC50 [1] was 4.66 µM.
